Assay results from patent US11117869B2, “Compounds, compositions and methods for treatment of myopia” (Aerie Pharmaceuticals, Inc., priority 2019, dated 2021).

Test system: myopia
Assay: Topical eye drop composition (Table 3): myopia progression or onset
Details: drop 4 times per day

## CN1C2CCC1CC(OC(=O)C(C)(CO)c1ccccc1)C2.Cl (stereo not shown) [Compound E22R]
  rate of progression of myopia: substantially slows
